Key:
[1] = target: the molecule itself; test: SDS-PAGE with Coomassie staining (FIG. 7A)
AP-SpyTag002-MBP = target: T1, AP-SpyTag002-MBP; test: 0.5 µM each, PBS pH 7.5, 25 °C, SDS-PAGE with Coomassie staining (FIG. 16)
T1 construct: not shown: AP peptide tag for site-specific biotinylation; only primer DNA is printed for it

B1: L1C6 SpyCatcher variant (designed binder)
chain: GAMVDTLSGLSGEQGPSGDMTTEEDSATHIKFSKRDEDGRELAGATMELRDSSGKTISTWISDGHVKDFYLYPGKYTFVETAAPDGYEVATAITFTVNEQGQVTVNGEATKGDAHT
notes: also called SpyCatcher L1C6
**Q.** Does B1 bind [1]?
**A.** binds

B2: SpyCatcher002D5A (designed binder)
chain: GAMVATLSGLSGEQGPSGDMTTEEDSATHIKFSKRDEDGRELAGATMELRDSSGKTISTWISDGHVKDFYLYPGKYTFVETAAPDGYEVATAITFTVNEQGQVTVNGEATKGDAHT
notes: also called D5A SpyCatcher002; variant of SpyCatcher002 containing an alanine residue at position 5
**Q.** Which “reaction rate (second-order rate constant)” value (AP-SpyTag002-MBP) does the source give for B2 here?
**A.** 7500 M⁻¹ s⁻¹

Reference: patent US20220119459A1 (OXFORD UNIVERSITY INNOVATION, published 2022)
